MITF act: activators of MITF-driven TRPM1 promoter activity in SK-MEL-5 cells; SK-MEL-5 TRPM1-promoter luciferase, 24 h; % of positive control, neutral wells = 0; activation, % at 12.5 µM; 0.75% of 300,000 active;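 active = mean activation of at least 80% with every replicate also reaching 80%; inconclusive = mean reaches 80% but some replicate falls short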;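 also: 0% = neutral control wells and 100% = parthenolide positive control wells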
PglD DTNB: inhibitors of Campylobacter jejuni PglD acetyltransferase | purified PglD enzyme, DTNB colorimetric CoA detection | inhibition, % at 12.5 µM | 0.098% of 360,000 active; in the data active = inhibition above about 16%, passing the limit was not always enough; inconclusive = no clear call, values can overlap the other calls
miR-122 sensor: inhibitors of miR-122 in Huh7 cells. AID 602342. Huh7 miR-122 Renilla luciferase sensor, 48 h; neutral wells = 0, positive control = 100. 0.3% of 340,000 active. activation (reporter increase), % at 12.5 µM;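 active = mean replicate activation score at least 90 and every replicate individually at or above 90; inconclusive = only one of the two criteria met; inactive = neither criterion met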;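 also: higher luciferase means less miR-122 activity so hits act as miR-122 inhibitors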
esBAF inh: inhibitors of esBAF chromatin remodeling in mouse ES cells; Bmi1-luciferase knock-in reporter, 24 h; 100% = twice the neutral-well signal; reporter increase, % at 12.5 µM; 2% of 350,000 active; AID 602393; in the data active = activation above about 40%; inconclusive = no clear call, values can overlap the other calls;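 also: 0% = median of the plate's neutral control wells and 100% = double that signal; a rise in the Bmi1 reporter signal indicates esBAF inhibition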
Wnt act: activates Wnt/beta-catenin signaling in a reporter cell assay. activator, plate reader. activation, % at 9.35 µM. 1.2% of 300,000 active; in the data active = activation above about 30%, passing the limit was not always enough; inconclusive = no clear call, values can overlap the other calls;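 also: 0% = neutral control wells and 100% = positive control wells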
UUG fidelity: alters start codon recognition fidelity in yeast | S. cerevisiae UUG-firefly luciferase reporter, luminescence/redox ratio | activity score, % at 18.7 µM | hit rate 0.13% among 350,000 | AID 602363;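 active means replicate mean at a twofold rise or more, about +100% in these data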;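 further: firefly luciferase made from a UUG start codon reports start codon fidelity; reporter light over untreated wells divided by growth signal over untreated wells; some hits fall short of that in this replicate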
* = called active by the depositor; [ ] = remark or other dose. Rows were chosen to be rich in hits. Some 2.8% of all compounds tested hit in one or more screens of this group.

How did CNC[C@H]1OCCCC[C@H](C)Oc2ccc(NC(=O)Cc3ccccc3)cc2C(=O)N([C@H](C)CO)C[C@@H]1C do in these assays?
PglD DTNB: 2; miR-122 sensor: 36[16.7 µM]; esBAF inh: -11; UUG fidelity: 14

How did C[C@H]1CN([C@@H](C)CO)C(=O)Cc2cc(NC(=O)Cc3cn(C)c4ccccc34)ccc2O[C@@H]1CN(C)C(=O)Nc1ccc(C(F)(F)F)cc1 do in these assays?
PglD DTNB: 0; miR-122 sensor: 4[16.7 µM]; esBAF inh: 1; UUG fidelity: -5

How did CCNC(=O)Nc1ccc2c(c1)C(=O)N(C)[C@H]1CC[C@H](CC(=O)NCc3ccc(F)cc3)O[C@@H]1CO2 do in these assays?
PglD DTNB: -2; miR-122 sensor: 2[16.7 µM]; esBAF inh: -4; UUG fidelity: -8

What do the screens show for `CCn1c(=O)c2cc(S(=O)(=O)NC3CCCCC3)ccc2n(CC)c1=O`?
MITF act: -3; PglD DTNB: 13; miR-122 sensor: 98*; esBAF inh: -6; Wnt act: 13; UUG fidelity: 1

Results for C=CCNc1nc(C(=O)OC(C)C(=O)c2ccc(C)cc2)cs1 (stereo unspecified) ?
MITF act: 29; PglD DTNB: -3; miR-122 sensor: 7; esBAF inh: 57*; Wnt act: 22; UUG fidelity: -16

Results for CCCc1nnc(NC(=O)c2c(O)c3c([nH]c2=O)CCCC3)s1 ?
PglD DTNB: 7; miR-122 sensor: -5; Wnt act: -3; UUG fidelity: -13

How did O=C(N/N=C/c1cccc(Cl)c1)c1c(O)c2c([nH]c1=O)CCCC2 do in these assays?
MITF act: 27; miR-122 sensor: -2; esBAF inh: -1; Wnt act: 6

What do the screens show for `O=C(Nc1ccccc1O)c1csc2c1CCCC2`?
MITF act: 49; PglD DTNB: 2; Wnt act: 38*; UUG fidelity: -9

How did COc1ccc(NC(=O)c2csc3c2CCCCC3)c(OC)c1 do in these assays?
MITF act: 11; Wnt act: -2

Results for O=C(Nc1ccccc1O)c1c(O)c2c([nH]c1=O)CCCC2 ?
MITF act: 27; PglD DTNB: -2; miR-122 sensor: -4; esBAF inh: 85*; Wnt act: -2; UUG fidelity: -35

How did O=C(Nc1nccs1)c1c(O)c2c([nH]c1=O)CCCC2 do in these assays?
MITF act: 50; miR-122 sensor: -1; esBAF inh: inconclusive; Wnt act: 50*

What do the screens show for `CO[C@@H]1CN(C)C(=O)c2cc(NS(=O)(=O)CC(F)(F)F)ccc2OC[C@H](C)N(Cc2ccccn2)C[C@H]1C`?
PglD DTNB: 1; esBAF inh: -1; UUG fidelity: -14

Results for COc1ccc(CN(C)C[C@H]2OCCCC[C@@H](C)Oc3ccc(NC(=O)NC4CCCCC4)cc3C(=O)N([C@@H](C)CO)C[C@H]2C)cc1 ?
PglD DTNB: 2; miR-122 sensor: -5[16.7 µM]; esBAF inh: 4; UUG fidelity: 11

How did Oc1ccc(/C=N/Nc2ncc(Cl)cc2Cl)cc1 do in these assays?
MITF act: 88*; PglD DTNB: 2; miR-122 sensor: -3; esBAF inh: 44*; Wnt act: 20; UUG fidelity: -2

Results for CN(C)C(=O)[C@H]1[C@H](CO)[C@H]2Cn3c(ccc(-c4ccccc4)c3=O)[C@@H]1N2C(=O)C1CCC1 ?
PglD DTNB: 2; esBAF inh: -1

How did Cc1noc(C)c1-c1ccc(C(=O)Nc2cccc(C(F)(F)F)c2)c2occc12 do in these assays?
PglD DTNB: -4; miR-122 sensor: 5; esBAF inh: 53*; Wnt act: -1; UUG fidelity: -7

Results for Cc1cccc2c3nc4ccccc4nc3n(C)c12 ?
MITF act: 25; PglD DTNB: -3; miR-122 sensor: 4; esBAF inh: 41*; Wnt act: 9; UUG fidelity: 22

What do the screens show for `CCC(=O)Nc1ccc(NC(=O)c2cc3ccccc3o2)c(OC)c1`?
PglD DTNB: 5; miR-122 sensor: -3; esBAF inh: 43*; Wnt act: -2; UUG fidelity: 0

Results for COc1cc(NC(=O)c2c(OC)cccc2OC)ccc1NC(=O)c1cc2ccccc2o1 ?
MITF act: 93*; PglD DTNB: -5; miR-122 sensor: -9; esBAF inh: inconclusive; Wnt act: 2; UUG fidelity: -16

Filtered by structure, those above with a Cl atom.
How did O=C(N/N=C/c1cccc(Cl)c1)c1c(O)c2c([nH]c1=O)CCCC2 do in these assays?
MITF act: 27; miR-122 sensor: -2; esBAF inh: -1; Wnt act: 6

How did Oc1ccc(/C=N/Nc2ncc(Cl)cc2Cl)cc1 do in these assays?
MITF act: 88*; PglD DTNB: 2; miR-122 sensor: -3; esBAF inh: 44*; Wnt act: 20; UUG fidelity: -2
